The values that follow come from PubChem BioAssay AID1662 (Broad Institute, 2009).

The list shows a part of the results, in another mix than the full data. Some structures show a salt or complex split into parts, the way the source records it. Active and inactive are the calls of the source.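 The calls were made as follows: active = mean replicate score, as percent of positive control median, at least 50; inconclusive = mean below 50 but one replicate at or above 50; inactive = mean and every replicate below 50.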

The nature of the test: S. pyogenes SKKanGAS growth inhibitors in kanamycin, primary screen, streptokinase expression inhibitor project, SKKanGAS strain, BacTiter-Glo luminescence (AID 1662).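 Also: strain carries kanamycin resistance gene driven by streptokinase promoter and grows in 40 µg/ml kanamycin; loss of luminescence reflects streptokinase promoter inhibition or plain growth inhibition; 0% = median of DMSO wells and 100% = positive control at its reference dose.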 The conditions noted are these: 6 h, at 7.5 µM, stronger effect = higher value.
Turning to `COc1ccccc1OP(C)(=O)Nc1ccc(C)cc1C` (stereo not given), the inhibition (usually the drop in the measured response relative to a control, in per cent) is inactive: 3.01%.
For `CP(=O)(Nc1ccccn1)Oc1ccccc1` (stereo not given), the inhibition was inactive: 2.41%.
With `CCc1ccc(OP(C)(=O)O)cc1` the figure was inactive: 0.756%; with `O=[N+]([O-])c1cc([N+](=O)[O-])c(Nc2ccccn2)c([N+](=O)[O-])c1`, active: 70.2%.
As for `Cc1c(NP(C)(=O)Oc2ccc(C(C)C)cc2)c(=O)n(-c2ccccc2)n1C` (stereo not given), the inhibition was inactive: -4.4%.
As to `COc1ccc(OP(C)(=O)Nc2ccccn2)cc1` (stereo not given), the inhibition was inactive: 4.49%.
Take `CN(C)CCOC(=O)C(O)(c1ccccc1)C1CCCC1` (stereo not given): the inhibition was inactive: -0.976%.
For `COc1ccccc1OP(C)(=O)Nc1ccc(Br)cc1` (stereo not given), the inhibition is inactive: -3.33%.
Consider `CP(=O)(OCCOc1ccccc1)OCCOc1ccccc1`, for which the inhibition was inactive: 3.43%.
Turning to `CP(=O)(Nc1ccc(Cl)cc1Cl)Oc1ccccc1` (stereo not given), the inhibition is inactive: 0.553%.
As to `Cc1nc2ccc3ccccc3c2o1.O=[N+]([O-])c1cc([N+](=O)[O-])c(O)c([N+](=O)[O-])c1`, the inhibition is inactive: 16.2%.
Take `COc1ccccc1OP(C)(=O)Nc1ccc(C)c(C)c1` (stereo not given): the inhibition was inactive: -1.82%.
Turning to `COc1ccc(OP(C)(=O)Nc2ccccc2Br)cc1` (stereo not given), the inhibition was inactive: -8.41%.
As to `Cc1cc(C)cc(OP(C)(=O)Nc2cccc(C(F)(F)F)c2)c1` (stereo not given), the inhibition was inactive: -2.53%.
For `CCOC(=O)c1ccc(NP(C)(=O)Oc2ccc(Cl)cc2)cc1` (stereo not given), the inhibition was inactive: 8.79%.
For the compound `CP(=O)(OC12CC3CC(CC(C3)C1)C2)OC12CC3CC(CC(C3)C1)C2`, the inhibition was inactive: 0.576%.
Turning to `Nc1ccc2c(ccc3cccnc32)n1.O=[N+]([O-])c1cc([N+](=O)[O-])c(O)c([N+](=O)[O-])c1`, the inhibition is inactive: -2.98%.
With `CN(C)C(=O)c1c([N+](=O)[O-])cc([N+](=O)[O-])cc1[N+](=O)[O-]` the figure was inactive: -7.48%.
As for `CC(C)(C)c1ccc(OP(C)(=O)O)cc1`, the inhibition was inactive: 3.05%.
Turning to `COc1ccccc1OP(C)(=O)Nc1ccccc1Br` (stereo not given), the inhibition is inactive: 13.9%.
Regarding `CP(=O)(Nc1ccc(Cl)cc1)Oc1ccc(F)cc1` (stereo not given), the inhibition is inactive: -8.1%.
On to `O=C(OCCCN1CCCC1)C(O)(c1ccccc1)C1CCCCC1` (stereo not given), for which the inhibition was inactive: -3.13%.
Turning to `COc1ccccc1OP(C)(=O)Nc1c(C)n(C)n(-c2ccccc2)c1=O` (stereo not given), the inhibition was inactive: -2.53%.
Consider `CCc1ccc(OP(C)(=O)Nc2cccnc2)cc1` (stereo not given), for which the inhibition is inactive: 0.633%.
With `CP(=O)(Oc1ccccc1)N1CCOC1=O` (stereo not given) the figure was inactive: -4.66%.
For `COc1ccc(OP(C)(=O)Nc2ccc(Br)cc2)cc1` (stereo not given), the inhibition was inactive: -4.34%.
Consider `CCN(CC)CC(O)COC(=O)C(O)(c1ccccc1)C1CCCCC1` (stereo not given), for which the inhibition is inactive: -4.85%.
`Cc1ccccc1NP(C)(=O)Nc1ccccc1C`: the inhibition was inactive: 1.67%.
For the compound `CP(=O)(Nc1ccc2c(c1)OCCO2)Oc1ccccc1` (stereo not given), the inhibition is inactive: 4.89%.
As to `CCOP(C)(=S)SCC(=O)NC(C)(CC)C(=O)O` (stereo not given), the inhibition was inactive: -1.43%.
For `CP(=O)(Nc1ccc(SC(F)(F)F)cc1)Oc1ccc(F)cc1` (stereo not given), the inhibition was inactive: 3.72%.
With `O=[N+]([O-])c1ccc(OP2(=O)COCCO2)cc1` (stereo not given) the figure was inactive: -0.804%; with `Cc1cc(-c2cccc3ccccc23)c(C)cn1.O=[N+]([O-])c1cc([N+](=O)[O-])c(O)c([N+](=O)[O-])c1`, inactive: 7.95%; with `O=[N+]([O-])c1cc([N+](=O)[O-])c(NCC2CCS(=O)(=O)C2)c([N+](=O)[O-])c1` (stereo not given), inactive: 6.11%.
With `CN(C)CCOC(=O)C(O)(c1ccccc1)C1CCCCC1` (stereo not given) the figure was inactive: -5.32%; with `COc1ccc(NP(C)(=O)Oc2ccccc2OC)cc1` (stereo not given), inactive: -4.88%; with `COc1ccc(OP(C)(=O)Nc2cccc(Br)c2)cc1` (stereo not given), inactive: 5.31%.
As for `CP(=O)(Nc1ccccc1)Oc1ccc(F)cc1` (stereo not given), the inhibition was inactive: -0.234%.
On to `O=[N+]([O-])c1cc([N+](=O)[O-])c(OC2CCCCC2O)c([N+](=O)[O-])c1` (stereo not given), for which the inhibition was inactive: -3.07%.
For the compound `CCCCCOc1ccc(NP(C)(=O)Oc2ccc(Cl)cc2Cl)cc1` (stereo not given), the inhibition is inactive: 12.7%.
Take `CCN(CC)CCCOC(=O)C(O)(c1ccccc1)C1CCCCC1` (stereo not given): the inhibition is inactive: -2.61%.
With `CCOC(=O)c1ccc(NP(C)(=O)Oc2ccc(F)cc2)cc1` (stereo not given) the figure was inactive: -2.58%.
Turning to `COc1ccc(OP(C)(=O)Nc2ccc(SC(F)(F)F)cc2)cc1` (stereo not given), the inhibition was inactive: -2.99%.
Consider `COc1ccc2c(c1O)-c1c(O)c(OC)cc3c1[C@H](C2)[N+](C)(C)CC3.O=[N+]([O-])c1cc([N+](=O)[O-])c([O-])c([N+](=O)[O-])c1[O-]`, for which the inhibition was inactive: -0.622%.
With `O=C(OC1CN2CCC1CC2)c1ccc([N+](=O)[O-])cc1` (stereo not given), the inhibition is inactive: 16.2%.
With `O=C(OCCN1CCN(CCOCc2ccccc2)CC1)C(O)(c1ccccc1)c1ccccc1`, the inhibition is inactive: -10.8%.
With `CP(=O)(Nc1ccccc1F)Oc1ccccc1` (stereo not given) the figure was inactive: -1.3%; with `CC(C)c1ccc(OP(C)(=O)Nc2ccc(SC(F)(F)F)cc2)cc1` (stereo not given), inactive: 9.74%; with `Cc1ccc(C)c(NP(C)(=O)Oc2ccccc2)c1` (stereo not given), inactive: -1.57%.
In the case of `CP(=O)(Nc1cccc(Br)c1)Oc1ccccc1` (stereo not given), the inhibition is inactive: -4.17%.
Turning to `Cc1cc(C)cc(OP(C)(=O)Nc2ccccn2)c1` (stereo not given), the inhibition was inactive: -13.6%.
With `CCOC(=O)c1ccc(NP(C)(=O)Oc2cc(C)cc(C)c2)cc1` (stereo not given) the figure was inactive: -4.55%.
`Cc1cc(C)cc(OP(C)(=O)Nc2ccc(C)cc2C)c1` (stereo not given): the inhibition was inactive: -3.16%.
Consider `COc1ccccc1OP(C)(=O)Nc1cccc(Br)c1` (stereo not given), for which the inhibition is inactive: -23%.
Regarding `CC1=NCCc2c1[nH]c1ccccc21.O=[N+]([O-])c1cc([N+](=O)[O-])c(O)c([N+](=O)[O-])c1`, the inhibition is inactive: 5.95%.
As to `O=C(O)c1cccc(Nc2c([N+](=O)[O-])cc([N+](=O)[O-])cc2[N+](=O)[O-])c1`, the inhibition is inactive: 13.1%.
For the compound `CP(=O)(Nc1ccc(SC(F)(F)F)cc1)Oc1ccccc1` (stereo not given), the inhibition is inactive: 0.164%.
For the compound `CCCOc1ccc(NP(C)(=O)Oc2ccc(Cl)cc2)cc1` (stereo not given), the inhibition is inactive: 5.25%.
For the compound `CN1CCCCC1COC(=O)C1(O)c2ccccc2CCc2ccccc21` (stereo not given), the inhibition was inactive: -13.6%.
Turning to `COc1ccccc1OP(C)(=O)Nc1c(C)cccc1C` (stereo not given), the inhibition is inactive: -6.64%.
